This note sets out measurements from publication PMC6389962 (Nature Communications, 2019).

Read-outs that look alike come from different tables or passages of the source.

Assay [1] deals with T1, mouse GLP-1 receptor (Mus musculus, UniProt O35659).
T1 sequence (O35659 22-463): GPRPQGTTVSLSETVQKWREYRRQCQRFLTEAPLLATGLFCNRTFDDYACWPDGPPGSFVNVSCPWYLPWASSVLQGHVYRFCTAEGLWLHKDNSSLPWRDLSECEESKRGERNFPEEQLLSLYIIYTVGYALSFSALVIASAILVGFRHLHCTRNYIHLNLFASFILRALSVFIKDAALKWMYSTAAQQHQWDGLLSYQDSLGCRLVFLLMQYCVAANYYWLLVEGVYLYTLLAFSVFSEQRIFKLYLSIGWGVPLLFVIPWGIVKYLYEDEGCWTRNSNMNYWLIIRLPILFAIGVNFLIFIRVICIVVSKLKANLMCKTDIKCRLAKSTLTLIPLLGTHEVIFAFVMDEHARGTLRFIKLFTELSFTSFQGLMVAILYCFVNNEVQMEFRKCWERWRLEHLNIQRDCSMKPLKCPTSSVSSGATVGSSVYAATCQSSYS
The experiment in a line: cell-based. As to conditions: for Emax: 14: experiment 1.

Assay [2] addresses T1, mouse GLP-1 receptor.
[3] abbreviates: read-out: Top (best-fit value), variable slope four-parameter fit, unconstrained.

In assay [1], `CC[C@H](C)[C@H](NC(=O)[C@H](Cc1ccccc1)NC(=O)[C@H](CCC(=O)O)NC(=O)[C@H](CCCCN)NC(=O)[C@H](C)NC(=O)[C@H](C)NC(=O)[C@H](CCC(N)=O)NC(=O)CNC(=O)[C@H](CCC(=O)O)NC(=O)[C@H](CC(C)C)NC(=O)[C@H](Cc1ccc(O)cc1)NC(=O)[C@H](CO)NC(=O)[C@H](CO)NC(=O)[C@@H](NC(=O)[C@H](CC(=O)O)NC(=O)[C@H](CO)NC(=O)[C@@H](NC(=O)[C@H](Cc1ccccc1)NC(=O)[C@@H](NC(=O)CNC(=O)[C@H](CCC(=O)O)NC(=O)CNC(=O)[C@@H](N)Cc1c[nH]cn1)[C@@H](C)O)[C@@H](C)O)C(C)C)C(=O)N[C@@H](C)C(=O)N[C@@H](C)CNC(=O)N[C@@H](C)CNC(=O)N[C@@H](C)CNC(=O)NCC(=O)N[C@@H](CCCNC(=N)N)C(=O)NCC(N)=O` [compound 19, GG2[A^uA^uA^u]^25-28] returned a concentration giving a half-maximal response (EC50) of 368 nM. For the same molecule, the Emax in assay [1] (read-out: Top (best-fit value), fit with BOTTOM = 0%) turned out to be 160%. For the same molecule, in assay [2] (cAMP production, from EC50), the “Potency (%), percentage of potency compare to GLP-1-G^2” value was determined as 0.07%.
On to `CC[C@H](C)[C@H](NC(=O)[C@H](Cc1ccccc1)NC(=O)[C@H](CCC(=O)O)NC(=O)[C@H](CCCCN)NC(=O)[C@H](C)NC(=O)[C@H](C)NC(=O)[C@H](CCC(N)=O)NC(=O)CNC(=O)[C@H](CCC(=O)O)NC(=O)[C@H](CC(C)C)NC(=O)[C@H](Cc1ccc(O)cc1)NC(=O)[C@H](CO)NC(=O)[C@H](CO)NC(=O)[C@@H](NC(=O)[C@H](CC(=O)O)NC(=O)[C@H](CO)NC(=O)[C@@H](NC(=O)[C@H](Cc1ccccc1)NC(=O)[C@@H](NC(=O)CNC(=O)[C@H](CCC(=O)O)NC(=O)CNC(=O)[C@@H](N)Cc1c[nH]cn1)[C@@H](C)O)[C@@H](C)O)C(C)C)C(=O)N[C@@H](C)C(=O)N[C@@H](Cc1c[nH]c2ccccc12)C(=O)N[C@@H](C)CNC(=O)N[C@@H](C)CNC(=O)N[C@@H](C)CNC(=O)N[C@@H](CCCNC(=N)N)C(=O)NCC(N)=O` [compound 20, GG2[A^uA^uA^u]^26-29], for which, in assay [1], a half-maximal effect (EC50) was put at 26 nM. In addition, in assay [1] (setting [3]), the Emax is 81.6%. Besides, in assay [2], the “LogEC50 (best-fit value)” value was -7.584.
`CC[C@H](C)[C@H](NC(=O)[C@H](Cc1ccccc1)NC(=O)[C@H](CCC(=O)O)NC(=O)[C@H](CCCCN)NC(=O)[C@H](C)NC(=O)[C@H](C)NC(=O)[C@H](CCC(N)=O)NC(=O)CNC(=O)[C@H](CCC(=O)O)NC(=O)[C@H](CC(C)C)NC(=O)[C@H](Cc1ccc(O)cc1)NC(=O)[C@H](CO)NC(=O)[C@H](CO)NC(=O)[C@@H](NC(=O)[C@H](CC(=O)O)NC(=O)[C@H](CO)NC(=O)[C@@H](NC(=O)[C@H](Cc1ccccc1)NC(=O)[C@@H](NC(=O)CNC(=O)[C@H](CCC(=O)O)NC(=O)CNC(=O)[C@@H](N)Cc1c[nH]cn1)[C@@H](C)O)[C@@H](C)O)C(C)C)C(=O)N[C@@H](C)C(=O)N[C@@H](Cc1c[nH]c2ccccc12)C(=O)N[C@@H](CC(C)C)C(=O)N[C@@H](C)CNC(=O)N[C@@H](C)CNC(=O)N[C@@H](C)CNC(=O)NCC(N)=O` [compound 21, GG2[A^uA^uA^u]^27-30] showed an EC50 in assay [1] of 2.8 nM. Besides, the Emax in assay [1] (setting [3]) was determined as 104%. In addition, the “LogEC50 (best-fit value)” value in assay [2] is on record as -8.547.
